Columns and labels:
[1] = found by Jurado Soler et al.; cited from earlier work

| Substance | Solubility in methanol, ethanol, dimethyl sulfoxide and N,N-dimethyl formamide | Solubility in solvents such as methanol, ethanol and dimethyl sulfoxide [1] |
| --- | --- | --- |
| lincosamine dodecyl sulfonate | can be dissolved |  |
| Gentamicin pentakis dodecyl sulfate |  | soluble |
| lincosamine dodecyl sulfate | can be dissolved |  |

Reference: patent publication US6984410B2, “Process for antibiotic coating of elements with interconnecting microcavities, elements thus coated as well as their usage” (Heraeus Kulzer GmbH & Co. KG, priority 2001, dated 2006)
